Laboratory results: ChEMBL document CHEMBL1124142, “N6-[2-(3,5-dimethoxyphenyl)-2-(2-methylphenyl)ethyl]adenosine and its uronamide derivatives. Novel adenosine agonists with both high affinity and high selectivity for the adenosine A2 receptor” (J Med Chem, 1988)
pKi: −log10 of the molar value.

The chains behind the UniProt entries cited, without tags or fusion partners.
UniProt P25099, whole entry: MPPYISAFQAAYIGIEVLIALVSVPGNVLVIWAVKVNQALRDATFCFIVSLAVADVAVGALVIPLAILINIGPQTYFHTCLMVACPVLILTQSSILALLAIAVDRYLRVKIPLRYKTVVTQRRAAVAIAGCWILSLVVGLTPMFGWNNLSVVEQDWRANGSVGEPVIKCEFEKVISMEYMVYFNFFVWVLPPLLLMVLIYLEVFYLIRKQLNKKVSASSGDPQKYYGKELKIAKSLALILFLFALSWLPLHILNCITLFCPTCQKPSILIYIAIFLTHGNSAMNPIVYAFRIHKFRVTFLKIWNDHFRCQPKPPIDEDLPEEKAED

Target: Adenosine receptor A1 (Rattus norvegicus, UniProt P25099)
Experiment: biochemical

Nc1nc(Nc2ccccc2)nc2c1ncn2[C@@H]1O[C@H](CO)[C@@H](O)[C@H]1O
pKi: 6.22
